Patent publication US20250345383A1, “INTRANASAL ADMINISTRATION OF POLYSULFIDE” (The General Hospital Corporation, priority 2022, published 2025)

Test system: mice subjected to SCI
Assay: Mouse model of spinal cord ischemia (SCI): delayed paraplegia, hindlimb motor function by Basso mouse scale (BMS)
Conditions: in vivo

CC(C)(CO)[C@@H](O)C(=O)NCCC(=O)NCCSSCCNC(=O)CCNC(=O)[C@H](O)C(C)(C)CO [PTN, pantethine, reference compound]
male mice rescued from delayed paraplegia: did not rescue any male mouse
